The experiment deals with 5-hydroxytryptamine receptor 4 (Cavia porcellus) (UniProt O70528). As to the kind of experiment: Displacement of [3H]GR113808 from 5HT4R in guinea pig striatal membranes at 10 nM. In kind it is cell membranes. The following applies: Striatum, Membrane. A digest of the protocol:
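Native 5-HT4R in male guinea pig striatal membranes (HEPES 50 mM pH 7.4); 600 µg membrane incubated in duplicate with [3H]GR 113808 at 0.1 nM final, 37 °C, 30 min; filtration on PEI-soaked GF/B filters, cold buffer washes.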
In general terms: Displacement assays read how much labelled ligand stays bound in the presence of the test substance.

Amino acid sequences for entries named in this document (tags omitted). A change or cut given only in a name is not applied to a line headed by its entry.
UniProt O70528: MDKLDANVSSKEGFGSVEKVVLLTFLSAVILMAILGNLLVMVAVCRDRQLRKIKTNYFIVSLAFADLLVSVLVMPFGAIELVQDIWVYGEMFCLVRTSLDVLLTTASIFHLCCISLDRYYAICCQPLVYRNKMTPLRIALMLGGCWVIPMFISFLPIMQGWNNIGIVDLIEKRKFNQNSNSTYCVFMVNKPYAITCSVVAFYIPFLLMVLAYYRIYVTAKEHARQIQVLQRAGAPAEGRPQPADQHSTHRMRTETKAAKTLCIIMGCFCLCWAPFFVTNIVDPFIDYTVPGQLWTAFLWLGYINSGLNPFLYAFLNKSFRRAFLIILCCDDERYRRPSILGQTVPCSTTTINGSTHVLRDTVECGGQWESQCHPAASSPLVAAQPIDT

Each structure is given as a SMILES string.

As a reminder, the inhibition is the share of the control response that was lost under treatment.

`CCCN1CCC(COc2nc3ccc(C)cc3c3ccccc23)CC1` registered an inhibition of 7%.

With `CCCN1CCC(COc2nc3ccccc3c3cc(F)ccc23)CC1`, the inhibition amounted to 0%.

The values are drawn from ChEMBL document CHEMBL2176996, “Synthesis and structure-affinity relationships of selective high-affinity 5-HT(4) receptor antagonists: application to the design of new potential single photon emission computed tomography tracers” (J Med Chem, 2012).
